Consider one compound from article PMC10747029 (Pharmaceutics, 2023).

What all share (format): cell-based
For assay [1], the system named is human cervical adenocarcinoma HeLa. Briefly: MTT cell viability assay, HeLa. The conditions noted are these: IC50 (non-tumor Wi-38 cells)/IC50 (HeLa). As for the experimental part: (§1) The cell cultures were grown at 37 °C in an atmosphere of 5% CO2 and 100% humidity.
(§2) The cell viability was assessed using the MTT method. The cell cultures were seeded in 96-well plates at a density of 10,000 cells per well. After the cells were attached to the surface of the wells, they were incubated in the presence of the test substances at final concentrations in the range of 10^−8 M to 10^−4 M for 48 h. […] At the end of the incubation, the medium in which the cells with substances were cultivated was replaced with a nutrient medium without fetal calf serum, which contained 5 mg/mL MTT, and the incubation continued for another 2 h in a CO2 incubator. After incubation, the medium with MTT was removed, and a DMSO solution was added to the wells to dissolve the formazan precipitate formed from MTT during the cell life. The optical density of the samples was measured at a wavelength of 530 nm on a photometer Uniplan AIFR-01 (Pikon, Moscow, Russia). The cell viability in the cultures was expressed as a percentage relative to the values obtained for the control samples (without tested compounds). The average values of optical density in the control samples were taken as 100%.
(§3) Statistical analysis was carried out using the GraphPad Prism v8.4.3 software with nonlinear regression analysis for the cell viability assay. […] The mean ± standard deviation value was calculated for each point.
(Tetrazolium dyes change colour on reduction, which living cells bring about.)

Assay [2] deals with human chronic erythroleukemia K-562. The assay is described as follows: MTT cell viability assay, K-562. The conditions noted are these: IC50 (non-tumor Wi-38 cells)/IC50 (K-562). How it is done: as §1, §2, §3
Assay [3] relates to human larynx carcinoma Hep-2. The assay is described as follows: MTT cell viability assay, Hep-2. The conditions noted are these: IC50 (non-tumor Wi-38 cells)/IC50 (Hep-2). How it is done:
as §1, §2, §3

Assay [4] deals with human breast adenocarcinoma MCF-7. Briefly: MTT cell viability assay, MCF-7. The conditions noted are these: IC50 (non-tumor Wi-38 cells)/IC50 (MCF-7). How it is done:
as §1, §2, §3

Turning to `C[C@@H]1C[C@H]2[C@@H]3CCC4=CC(=O)C=C[C@]4(C)[C@@]3(F)[C@@H](O)C[C@]2(C)[C@@]1(O)C(=O)CO` [DEX, dexamethasone], the “Selectivity index (SI) HeLa” value in assay [1] is given as 13.44. In assay [2], the “Selectivity index (SI) K-562” value amounted to 16.71. Moreover, in assay [3], the “Selectivity index (SI) Hep-2” value is on record as 1.61. For the same compound, the “Selectivity index (SI) MCF-7” value in assay [4] stood at 0.78.
